# In patent publication US20260193272A1, “SELENIUM CONTAINING HETEROCYCLE COMPOUNDS AND USE THEREOF” (HELIOS HUAMING BIOPHARMA CO., LTD., priority 2022, published 2026):
# Amino acid sequences for entries named in this document (tags omitted).
# UniProt Q9UM07, whole entry: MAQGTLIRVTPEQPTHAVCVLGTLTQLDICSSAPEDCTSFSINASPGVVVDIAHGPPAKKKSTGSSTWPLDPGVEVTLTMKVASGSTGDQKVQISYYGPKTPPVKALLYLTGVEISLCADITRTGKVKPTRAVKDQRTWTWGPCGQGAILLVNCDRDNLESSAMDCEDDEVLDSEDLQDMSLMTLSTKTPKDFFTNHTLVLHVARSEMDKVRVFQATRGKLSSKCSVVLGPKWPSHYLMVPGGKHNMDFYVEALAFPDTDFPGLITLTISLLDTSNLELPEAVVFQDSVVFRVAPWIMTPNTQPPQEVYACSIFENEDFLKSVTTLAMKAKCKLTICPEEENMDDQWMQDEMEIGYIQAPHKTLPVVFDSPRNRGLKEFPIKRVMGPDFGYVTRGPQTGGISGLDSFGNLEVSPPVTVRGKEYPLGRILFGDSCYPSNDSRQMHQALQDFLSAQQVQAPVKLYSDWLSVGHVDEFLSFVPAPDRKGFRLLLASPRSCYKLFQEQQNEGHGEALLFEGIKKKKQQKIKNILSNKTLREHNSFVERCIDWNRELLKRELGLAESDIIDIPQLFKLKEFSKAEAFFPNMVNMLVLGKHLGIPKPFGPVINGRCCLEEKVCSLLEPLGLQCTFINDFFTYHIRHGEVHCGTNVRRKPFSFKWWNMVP
# Target: PAD4 enzyme (Homo sapiens, UniProt Q9UM07)
# Experiment: In-vitro measurement for enzymatic PAD4 citrullination inhibition activity (ammonia release)
# Conditions: read-out: IC50 of inhibition enzymatic activity of PAD4 (Colorimetric assays, Nature Chemical Biology, 2015, 11: 189-191)
# Experimental: Citrullination was detected via ammonia release based on published methodology (Nature Chemical Biology, 2015, 11: 189-191).
# PAD4 enzyme was diluted to 30 nM in Assay Buffer (100 mM HEPES, 50 mM NaCl, 2 mM DTT, 0.6 mg/ml BSA, pH 8) and added to wells containing various concentrations of compound or DMSO vehicle (0.8% final) in a high-volume black 96-well plate (Greiner). Following a 60-min preincubation at 27° C., the reaction was initiated by the addition of substrate (3 mM BAEE in 100 mM HEPES, 50 mM NaCl, […] CaCl2, 2 mM DTT, pH 8). The reaction was stopped after 90 min by the addition of stop/detection buffer containing 50 mM EDTA, 2.6 mM o-phthalaldehyde and 2.6 mM DTT. Assays were incubated at 27° C. for 120 min before measuring fluorescence (λex 410/λem 476) on an Envision plate reader (PerkinElmer). After which IC50 values were calculated using GraphPad Prism 8.0.
structure (smiles),measurement,value
COc1cc(C(=O)N2C[C@H](N)CC[C@@H]2C)cc2nc(-c3cc4[se]c(C)nc4n3Cc3ccccc3)n(C)c12,IC50,100 to 500 nM
